Values quoted from earlier work in patent US12311056B2, “Composition and method for treatment of neuropsychiatric disorders” (Duke University, priority 2015, dated 2025).

Settings: in vivo; cited from earlier work

CN1CCN2c3ncccc3Cc3ccccc3[C@H]2C1 [esmirtazapine]
Brain accumulation in comparison with the R(−) enantiomer: may accumulated more in the brain
